Assay results as given in PubChem BioAssay (NCI).
Only a part is listed here, and it is no random draw. Calls of active or inactive are those of the source. Rule as the data show it: active = growth inhibition above about 70%; inactive = the rest.

Assays:
[1] = NCI Yeast Anticancer Drug Screen. Data for the rad50 strain (AID 155);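 also: 0% = growth of vehicle-only cultures of the same strain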; settings: S. cerevisiae rad50 strain growth inhibition; at 50.0 µM; stronger effect = higher value
[2] = NCI Yeast Anticancer Drug Screen. Data for the mec2-1 strain (AID 157); settings: S. cerevisiae mec2-1 strain, at 50.0 µM, stronger effect = higher value
[3] = NCI Yeast Anticancer Drug Screen. Data for the sgs1 mgt1 strain (AID 161);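 also: 0% = growth of cultures given vehicle only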; settings: S. cerevisiae sgs1 mgt1 strain, at 50.0 µM, stronger effect = higher value
[4] = NCI Yeast Anticancer Drug Screen. Data for the cln2 rad14 strain (AID 165);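 also: 0% = growth equal to vehicle treated cultures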; settings: S. cerevisiae cln2 rad14 strain, at 50.0 µM, stronger effect = higher value
[5] = NCI Yeast Anticancer Drug Screen. Data for the bub3 strain (AID 167); settings: S. cerevisiae bub3 mutant strain, at 50.0 µM, stronger effect = higher value
[6] = NCI Yeast Anticancer Drug Screen. Data for the mlh1 rad18 strain (AID 175); settings: S. cerevisiae mlh1 rad18 strain growth inhibition; at 50.0 µM; stronger effect = higher value

Measured: growth inhibition

O=C1OCCN1P(=O)(Cl)N1CCOC1=O
inactive: [1] -1.9% | [2] -11.9% | [3] -15.6% | [4] 5.25% | [5] -4.7% | [6] -1.45%

O=C(N=Nc1ccc([N+](=O)[O-])cc1[N+](=O)[O-])NNc1ccc([N+](=O)[O-])cc1[N+](=O)[O-]
inactive: [1] 27% | [2] 36.1% | [3] 38% | [4] 30.9% | [5] 42.4% | [6] 51.1%

O=C1C(F)=C(NCCBr)C(=O)C(F)=C1NCCBr
inactive: [1] 8.95% | [2] -5.25% | [3] 11.1% | [4] 25.8% | [5] 21.9% | [6] 33.7%

O=C(O)C(CCSSCCC(Nc1ccc([N+](=O)[O-])cc1[N+](=O)[O-])C(=O)O)Nc1ccc([N+](=O)[O-])cc1[N+](=O)[O-] (stereo unspecified)
inactive: [1] 52.4% | [2] 26.8% | [3] 48% | [4] 26.7% | [5] 4.7% | [6] 46.5%

[N-]=[N+]=NC(COC(=O)c1cc([N+](=O)[O-])cc([N+](=O)[O-])c1)c1ccccc1 (stereo unspecified)
inactive: [1] -10.3% | [2] -16.1% | [3] 6.2% | [4] -32.6% | [5] -0.55% | [6] 1.5%

Cc1ccc(OP(=S)(Cl)Cl)cc1
inactive: [1] -11.1% | [2] -19.1% | [3] -11.4% | [4] -6.05% | [5] 21.1% | [6] -0.7%

ClP1(Cl)=NP(Cl)(Cl)=NP(Cl)(Cl)=N1
inactive: [1] 12.6% | [2] 10.2% | [3] -15.8% | [4] -24.2% | [5] -2.3% | [6] 35.6%

CCCCOc1ccc(N(CCCl)CCCl)cc1
inactive: [1] -1.2% | [2] -0.2% | [3] 6.55% | [4] 7.9% | [5] -4.05% | [6] -48.5%

COc1ccc(CNCCCl)cc1OC
inactive: [1] -3.2% | [2] -4.95% | [3] 1.9% | [4] -8.5% | [5] 9.55% | [6] -19%

Nc1ccc(P(=O)(Nc2ccccn2)Nc2ccccn2)cc1
inactive: [1] -5% | [2] 6.3% | [3] 3.45% | [4] -19.6% | [5] 15.8% | [6] 12.2%

CCN(CCCl)c1ccc(CCN)cc1
inactive: [1] -3.45% | [2] -10.3% | [3] 0.95% | [4] 14% | [5] 2.4% | [6] 2.25%

ClCCN1C[C@H]2[C@H]3CC[C@H](C3)[C@@]2(c2ccccc2)C1
inactive: [1] -4.9% | [2] -7.75% | [3] 12.1% | [4] -31.1% | [5] -16.9% | [6] 13.2%

NNc1ccc([N+](=O)[O-])cc1[N+](=O)[O-]
inactive: [1] 56.2% | [2] 6.25% | [3] 34.2% | [4] 21.8% | [5] 33.6% | [6] 55.8%

Cc1c([N+](=O)[O-])c2c([N+](=O)[O-])cc([N+](=O)[O-])cc2n1C
inactive: [1] 32.3% | [2] 5.85% | [3] 36.1% | [4] 15% | [5] 18.9% | [6] 54.3%

C/C(=N/Nc1ccc([N+](=O)[O-])cc1[N+](=O)[O-])c1ccc([N+](=O)[O-])cc1
inactive: [1] 13.6% | [2] 14.8% | [3] 13.9% | [4] 7.1% | [5] 38.7% | [6] 12.2%

CCN(CC)CC(O)c1ccc2c(ccc3ccccc32)c1 (stereo unspecified)
inactive: [1] 36% | [2] 9.25% | [3] 23.6% | [4] 5.15% | [5] 2.55% | [6] 29.5%

ClCCN(Cc1ccccc1)Cc1cccs1
inactive: [1] 3.2% | [2] 12.6% | [3] 13.9% | [4] -22.6% | [5] -13.9% | [6] 12.6%

Nc1ncnc2nc(/N=N\N(CCCl)CCCl)[nH]c12
inactive: [1] -9.25% | [2] -12.4% | [3] -0.4% | [4] -36.6% | [5] 20.1% | [6] -6.95%

COP(=O)(Nc1nccs1)c1ccc(N)cc1 (stereo unspecified)
inactive: [1] 7.45% | [2] 6.7% | [3] 19.4% | [4] 20.1% | [5] 13.2% | [6] 15.3%

CC(COC(=O)c1cc([N+](=O)[O-])cc([N+](=O)[O-])c1)OC(=O)c1cc([N+](=O)[O-])cc([N+](=O)[O-])c1 (stereo unspecified)
inactive: [1] -5.65% | [2] -7.95% | [3] -23.2% | [4] -50% | [5] 1.7% | [6] 4.8%

O=C(O)C(O)c1ccc([As](=O)(O)O)cc1 (stereo unspecified)
inactive: [1] -14.9% | [2] -20.8% | [3] -32.7% | [4] -36.2% | [5] -44% | [6] 7.5%
